According to patent publication US20080146500A1, “Selective Vpac2 Receptor Peptide Agonists” (priority 2004, published 2008):

Assays:
human VPAC2 = target: T1, human VPAC2 (Homo sapiens, UniProt P41587); assay: Alpha screen in vitro potency: human VPAC2-R mediated cAMP generation; assay type: cell-based
T1 construct: expressed in transfected cells
T1 sequence (P41587 24-438): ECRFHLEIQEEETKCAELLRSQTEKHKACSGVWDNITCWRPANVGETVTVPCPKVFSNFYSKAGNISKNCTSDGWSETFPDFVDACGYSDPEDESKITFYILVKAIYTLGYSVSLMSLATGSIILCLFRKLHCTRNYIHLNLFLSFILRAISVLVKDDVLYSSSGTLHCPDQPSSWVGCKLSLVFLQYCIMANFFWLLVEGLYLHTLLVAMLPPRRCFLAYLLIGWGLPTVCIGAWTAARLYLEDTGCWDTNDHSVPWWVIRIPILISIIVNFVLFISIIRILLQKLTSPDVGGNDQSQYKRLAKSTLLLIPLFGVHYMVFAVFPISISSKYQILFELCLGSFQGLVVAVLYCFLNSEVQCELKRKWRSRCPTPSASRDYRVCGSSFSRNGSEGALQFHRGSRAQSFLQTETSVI

human PAC1 = target: T2, human PAC1 (Homo sapiens, UniProt P41586); assay: Filter binding assay, membranes from cells transiently transfected with human PAC1, 125I-labeled PACAP-27 tracer; details: read-out: Human receptor binding (IC50; nM) PAC1
T2 construct: expressed in transfected cells
T2 sequence (P41586 21-468): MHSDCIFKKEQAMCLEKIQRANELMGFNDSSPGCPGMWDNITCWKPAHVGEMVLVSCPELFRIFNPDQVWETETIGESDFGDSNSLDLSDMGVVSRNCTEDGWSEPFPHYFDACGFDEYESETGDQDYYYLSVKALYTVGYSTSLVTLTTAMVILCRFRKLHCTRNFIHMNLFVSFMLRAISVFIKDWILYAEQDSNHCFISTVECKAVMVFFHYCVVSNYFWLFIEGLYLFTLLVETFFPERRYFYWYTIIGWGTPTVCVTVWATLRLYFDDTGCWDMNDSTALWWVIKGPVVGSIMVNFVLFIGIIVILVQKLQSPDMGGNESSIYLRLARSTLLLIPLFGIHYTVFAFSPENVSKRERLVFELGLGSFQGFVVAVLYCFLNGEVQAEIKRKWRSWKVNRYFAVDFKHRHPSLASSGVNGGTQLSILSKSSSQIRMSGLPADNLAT
Experimental: For this assay, the solutions and equipment include:
Presoak solution: 0.5% Polyethyleneamine in Aqua dest.
Buffer for flushing filter plates: 25 mM HEPES pH 7.4
Blocking buffer: 25 mM HEPES pH 7.4; 0.2% protease free BSA
Assay buffer: 25 mM HEPES pH 7.4; 0.5% protease free BSA
Dilution and assay plate: PS-Microplate, U form
Filtration Plate Multiscreen FB Opaque Plate; […] Type B Glasfiber filter
In order to prepare the filter plates, the presoak solution is aspirated by vacuum filtration. The plates are flushed twice with 200 μL flush buffer. 200 μL blocking buffer is added to the filter plate. The filter plate is then incubated with 200 μL presoak solution for 1 hour at room temperature.
The assay plate is filled with […] (2.5 μg) suspended in assay buffer, 25 μL compound (agonist) in assay buffer, and 25 μL tracer (about 40000 cpm) in assay buffer. The filled plate is incubated for 1 hour with shaking.
The transfer from assay plate to filter plate is conducted. The blocking buffer is aspirated by vacuum filtration and washed two times with flush buffer. 90 μL is transferred from the assay plate to the filter plate. The 90 μL transferred from assay plate is aspirated and washed three times with 200 μL flush buffer. The plastic support is removed. It is dried for 1 hour at 60° C. 30 μL Microscint is added. The count is performed. […]

## HSDAYFTDNYTRLRKQMAVKKYLNSILN [VIP, reference compound]
Human VPAC2
  EC50: 1 nM
Human PAC1
  IC50: > 1000 nM
